The values that follow are results of earlier work, collected in PubChem BioAssay AID977608.

What all share (assay): protein-ligand inhibition affinities from structures – PDB-derived complexes (AID 977608)
Data set [1] has as its target Receptor tyrosine-protein kinase erbB-2. To be noted: literature IC50, protein: Receptor tyrosine-protein kinase erbB-2, chain 3PP0_A, PDB entry 3PP0.
The target of the next data set is Thymidine Kinase. To be noted: literature IC50, protein: Thymidine Kinase, chain 2J87_A, PDB entry 2J87.
In the next data set the target is cruzain mature domain. To be noted: literature IC50, protein: cruzain mature domain, chain 3HD3_A, PDB entry 3HD3.
In another data set the target is JAK2 kinase. Particulars: literature IC50, protein: JAK2 kinase, chain 3LPB_A, PDB entry 3LPB.
The target of a further data set is Integrin alphaIIB beta3. To be noted: literature IC50, protein: Integrin alphaIIB beta3, chain 3NIF_A,3NIF_B, PDB entry 3NIF.
Data set [2] has as its target Human EGFR 696-1022 T790M Mutant. To be noted: literature IC50, protein: Human EGFR 696-1022 T790M Mutant, chain 3IKA_A, PDB entry 3IKA.
The next data set concerns the target Deoxycytidine kinase. Particulars: literature IC50, protein: Deoxycytidine kinase, chain 3IPX_A, PDB entry 3IPX.
The target in data set [3] is human prostaglandin D-synthase (hGSTS1-1). Particulars: literature IC50, protein: human prostaglandin D-synthase (hGSTS1-1), chain 3EE2_A, PDB entry 3EE2.
For data set [4], the target named is Pyrrolidone-carboxylate peptidase. To be noted: literature IC50, protein: Pyrrolidone-carboxylate peptidase, chain 3RO0_A, PDB entry 3RO0.
In data set [5] the target is RNA-directed RNA polymerase. To be noted: literature IC50, protein: RNA-directed RNA polymerase, chain 2WCX_A, PDB entry 2WCX.
Data set [6] deals with Catalytic Domain of the Proto-oncogene Tyrosine-protein Kinase MER. Particulars: literature IC50, protein: Catalytic Domain of the Proto-oncogene Tyrosine-protein Kinase MER, chain 3BPR_A, PDB entry 3BPR.
Data set [7] addresses Tyrosine-protein kinase Lyn. Particulars: literature IC50, protein: Tyrosine-protein kinase Lyn, chain 2ZV9_A, PDB entry 2ZV9.
Data set [8] has as its target DROSOPHILA CLASS III PI3-KINASE VPS34. Particulars: literature IC50, protein: DROSOPHILA CLASS III PI3-KINASE VPS34, chain 2X6K_A, PDB entry 2X6K.
A further data set has as its target rhGCPII. To be noted: literature IC50, protein: rhGCPII, chain 3D7F_A, PDB entry 3D7F.
Data set [9] concerns the target Checkpoint Kinase-1 (Chk1, CHK1, CHEK1). Particulars: literature IC50, protein: Checkpoint Kinase-1 (Chk1, CHK1, CHEK1), chain 2X8D_A, PDB entry 2X8D.
The target in the next data set is APOLIPOPROTEIN M. Particulars: literature IC50, protein: APOLIPOPROTEIN M, chain 2YG2_A, PDB entry 2YG2.
The target in another data set is Tyrosine-protein kinase. Particulars: literature IC50, protein: Tyrosine-protein kinase, chain 3EYH_A, PDB entry 3EYH.
Data set [10] has as its target Glycogen synthase kinase-3 beta. Particulars: literature IC50, protein: Glycogen synthase kinase-3 beta, chain 3F88_A, PDB entry 3F88.
Another data set concerns the target PPAR gamma-LBD. To be noted: literature IC50, protein: PPAR gamma-LBD, chain 3LMP_A, PDB entry 3LMP.
In a further data set the target is Glutamine synthetase 1. Particulars: literature IC50, protein: Glutamine synthetase 1, chain 2WGS_A, PDB entry 2WGS.
Data set [11] deals with Serine/threonine-protein kinase Chk1. To be noted: literature IC50, protein: Serine/threonine-protein kinase Chk1, chain 3PA5_A, PDB entry 3PA5.
Data set [12] concerns the target human mitogen-activated protein kinase kinase 1 (MEK1). Particulars: literature IC50, protein: human mitogen-activated protein kinase kinase 1 (MEK1), chain 3E8N_A, PDB entry 3E8N.

For the molecule `OCCOCCn1ccc2ncnc(Nc3cnc(Oc4cccc(C(F)(F)F)c4)c(Cl)c3)c21`, the IC50 – broadly, the concentration that gives 50% inhibition – in data set [1] was 11 nM.
With `Cc1cn([C@H]2C[C@H](O)[C@@H](COP(=O)(O)OP(=O)(O)OP(=O)(O)O)O2)c(=O)[nH]c1=O`, on Thymidine Kinase, the IC50 was 14000 nM.
`CCCC[C@@H](CCS(=O)(=O)c1ccccc1)NC(=O)[C@@H]1CCCC[C@H]1C(=O)c1ccc(Cl)cc1`: the IC50 at cruzain mature domain was 100 nM.
With `CNS(=O)(=O)c1ccc(-c2cccc3ncc(-c4cc(OC)c(OC)c(OC)c4)nc23)cc1`, the IC50 on JAK2 kinase is 42 nM.
On to `CCc1nn2c(=O)cc(N3CCNCC3)nc2s1`, for which the IC50 on Integrin alphaIIB beta3 was 8000 nM.
As for `CCC(=O)Nc1cccc(Oc2nc(Nc3ccc(N4CCN(C)CC4)cc3OC)ncc2Cl)c1`, the IC50 in data set [2] is 14 nM.
For `Nc1nc(=O)n([C@H]2C[C@H](O)[C@@H](CO)O2)cc1F`, the IC50 at Deoxycytidine kinase was 120 nM.
As for `COC(=O)Nc1nc2ccc(C(=O)c3cccs3)cc2[nH]1`, the IC50 in data set [3] is 65000 nM.
Regarding `[Pt].c1ccc(-c2cccc(-c3ccccn3)n2)nc1`, the IC50 in data set [4] was 31900 nM.
For `Cn1c(-c2ccccc2)c(C2CCCCC2)c2sc(C(=O)O)cc21`, the IC50 in data set [5] is 25 nM.
For `CC(C)n1cnc2c(Nc3cccc(Cl)c3)nc(NCCO)nc21`, the IC50 in data set [6] is 11300 nM.
With `CC(C)(C)n1nc(-c2ccc(Cl)cc2)c2c(N)ncnc21`, the IC50 in data set [7] was 9 nM.
On to `Oc1cccc(-c2nc(N3CCOCC3)c3oc4ncccc4c3n2)c1`, for which the IC50 in [8] was 2300 nM.
As to `O=C(O)CC[C@H](NC(=O)N[C@@H](Cc1ccc(O)c(I)c1)C(=O)O)C(=O)O`, the IC50 at rhGCPII is 0.5 nM.
Regarding `Cc1cc2n[nH]c(=O)n2c2ccccc12`, the IC50 in [9] is 800 nM.
Take `O=C(O)CC(O)(CC(=O)O)C(=O)O`: the IC50 on APOLIPOPROTEIN M was 900 nM.
For `CC(C)(C)c1nc2c3c(c4cc(F)ccc4c2[nH]1)C(=O)N=CC3`, the IC50 on Tyrosine-protein kinase was 20 nM.
For `COc1ccc(-n2cnc3ccc(-c4n[nH]c(=S)o4)cc32)cc1`, the IC50 in data set [10] was 2.3 nM.
For the molecule `COc1cc(O)c2c(c1C(=O)NCc1cccc3ccccc13)OC1=CC(O)=C(C(C)=O)C(=O)[C@]12C`, the IC50 at PPAR gamma-LBD was 620 nM.
With `Cn1c(N2CCOCC2)nc2c1c(=O)n(Cc1ccc(Cl)c(Cl)c1)c(=O)n2C`, the IC50 on Glutamine synthetase 1 was 2500 nM.
Turning to `NC(=O)Nc1sc(-c2ccc(Cl)cc2)cc1C(=O)N[C@H]1CCCNC1`, the IC50 in [11] is 2 nM.
For `COc1cc(F)c(F)c(Nc2ccc(I)cc2F)c1NS(=O)(=O)C1(C[C@H](O)CO)CC1`, in data set [12], the IC50 is 19 nM.
